The values that follow come from US8975249B2, “Heterocyclic compounds and uses thereof” (Celgene Avilomics Research, Inc., priority 2010, dated 2015).

Sequences of proteins named here, by UniProt entry; tags and fusion partners are left off. Residues count along the entry.
UniProt P00533, 25-1210 T790M/L858R: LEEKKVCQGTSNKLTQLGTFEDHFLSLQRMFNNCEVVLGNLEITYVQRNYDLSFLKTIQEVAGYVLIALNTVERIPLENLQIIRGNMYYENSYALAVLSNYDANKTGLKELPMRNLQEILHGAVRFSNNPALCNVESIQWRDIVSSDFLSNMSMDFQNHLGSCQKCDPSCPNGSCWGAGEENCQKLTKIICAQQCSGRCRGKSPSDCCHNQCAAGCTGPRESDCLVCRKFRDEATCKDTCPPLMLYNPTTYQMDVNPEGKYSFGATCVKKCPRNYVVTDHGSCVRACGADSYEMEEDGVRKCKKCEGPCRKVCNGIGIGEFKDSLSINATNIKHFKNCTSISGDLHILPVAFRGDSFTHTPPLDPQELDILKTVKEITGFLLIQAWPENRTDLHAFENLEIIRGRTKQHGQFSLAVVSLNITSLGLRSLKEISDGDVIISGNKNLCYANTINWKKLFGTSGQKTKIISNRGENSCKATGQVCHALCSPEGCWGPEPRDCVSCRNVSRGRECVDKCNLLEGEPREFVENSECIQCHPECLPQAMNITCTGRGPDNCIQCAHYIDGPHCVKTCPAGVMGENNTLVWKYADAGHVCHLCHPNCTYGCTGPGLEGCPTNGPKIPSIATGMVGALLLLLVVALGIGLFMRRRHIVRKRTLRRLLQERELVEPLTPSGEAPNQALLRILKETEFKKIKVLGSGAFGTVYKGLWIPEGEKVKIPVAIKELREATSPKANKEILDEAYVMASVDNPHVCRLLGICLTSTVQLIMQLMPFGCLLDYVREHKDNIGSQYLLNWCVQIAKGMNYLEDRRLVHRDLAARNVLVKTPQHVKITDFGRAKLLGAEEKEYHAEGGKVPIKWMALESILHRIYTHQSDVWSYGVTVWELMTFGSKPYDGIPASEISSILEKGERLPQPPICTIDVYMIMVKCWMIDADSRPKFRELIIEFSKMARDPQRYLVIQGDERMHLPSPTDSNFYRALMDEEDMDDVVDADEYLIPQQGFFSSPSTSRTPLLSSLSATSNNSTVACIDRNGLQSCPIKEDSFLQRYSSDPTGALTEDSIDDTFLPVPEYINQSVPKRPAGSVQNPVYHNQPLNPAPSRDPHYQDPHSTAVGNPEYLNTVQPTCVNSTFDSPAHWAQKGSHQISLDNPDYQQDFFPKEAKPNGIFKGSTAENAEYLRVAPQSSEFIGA

Where only a bound is given, the exact number is not on record here.

One may read the IC50 as the concentration that gives 50% inhibition.

The assay deals with EGFR T790M/L858R (Homo sapiens (Human), UniProt P00533, L858R/T790M). The experiment in a line: Omnia biochemical assay, EGFR-T790M/L858R active enzyme. The following applies: [EGFR-T790M/L858R]=2.5 nM, [ATP]=20 uM, 30 min pre-incubation.
`C=CC(=O)Nc1cccc(Oc2nc(Nc3ccc(N4CCN(S(C)(=O)=O)CC4)cc3OC)ncc2Cl)c1` [Compound I-26, N-(3-(5-chloro-2-(2-methoxy-4-(4-(methylsulfonyl)piperazin-1-yl)phenylamino)pyrimidin-4-yloxy)phenyl)acrylamide] gave an IC50 below 1 nM.

`C=CC(=O)Nc1cccc(Nc2nc(Nc3ccc(N4CCN(C(C)=O)CC4)cc3OC(F)F)ncc2C(F)(F)F)c1` [Compound I-32, N-(3-(2-(4-(4-acetylpiperazin-1-yl)-2-(difluoromethoxy)phenylamino)-5-(trifluoromethyl)pyrimidin-4-ylamino)phenyl)acrylamide] showed an IC50 below 1 nM. Consider `C=CC(=O)Nc1cccc(Oc2nc(Nc3ccc(N4CCN(C(=O)OC(C)(C)C)CC4)cc3OCC)ncc2Cl)c1` [Compound I-18, tert-butyl 4-(4-(4-(3-acrylamidophenoxy)-5-chloropyrimidin-2-ylamino)-3-ethoxyphenyl)piperazine-1-carboxylate], for which the IC50 lay within 10 to 30 nM. The value for `C=CC(=O)Nc1cccc(Oc2nc(Nc3ccc(N4CCOCC4)cc3OC)ncc2Cl)c1` [Compound I-5, N-(3-(5-chloro-2-(2-methoxy-4-morpholinophenylamino)pyrimidin-4-yloxy)phenyl)acrylamide] was 1 to 10 nM. `C=CC(=O)Nc1cccc(Nc2nc(Nc3ccc(N4CCN(C(C)=O)[C@H](C(=O)OC)C4)cc3OC)ncc2C(F)(F)F)c1` [Compound I-48, (S)-methyl 1-acetyl-4-(4-(4-(3-acrylamidophenylamino)-5-(trifluoromethyl)pyrimidin-2-ylamino)-3-methoxyphenyl)piperazine-2-carboxylate]: the IC50 is below 1 nM.

As for `C=CC(=O)Nc1cccc(Nc2nc(Nc3ccc(N4CCCN(C(C)=O)CC4)cc3OC)ncc2C(F)(F)F)c1` [Compound I-7, N-(3-(2-(4-(4-acetyl-1,4-diazepan-1-yl)-2-methoxyphenylamino)-5-(trifluoromethyl)pyrimidin-4-ylamino)phenyl)acrylamide], the half-maximal inhibitory concentration (IC50) was below 1 nM.

`C=CC(=O)Nc1cccc(Nc2nc(Nc3ccc(N4CCOCC4)cc3OC)ncc2C(F)(F)F)c1` [Compound I-2, N-(3-(2-(2-methoxy-4-morpholinophenylamino)-5-(trifluoromethyl)pyrimidin-4-ylamino)phenyl)acrylamide]: the IC50 is below 1 nM.

Consider `C=CC(=O)Nc1cccc(Nc2nc(Nc3ccc(N4CCN(S(C)(=O)=O)CC4)cc3OC)ncc2C(F)(F)F)c1` [Compound I-17, N-(3-(2-(2-methoxy-4-(4-(methylsulfonyl)piperazin-1-yl)phenylamino)-5-(trifluoromethyl)pyrimidin-4-ylamino)phenyl)acrylamide], for which the IC50 was below 1 nM. For `C=CC(=O)Nc1cccc(Nc2nc(Nc3ccc(N4CCN(C(=O)CO)CC4)cc3OC)ncc2Cl)c1` [Compound I-12, N-(3-(5-chloro-2-(4-(4-(2-hydroxyacetyl)piperazin-1-yl)-2-methoxyphenylamino)pyrimidin-4-ylamino)phenyl)acrylamide] the value was below 1 nM; for `C=CC(=O)Nc1cccc(Oc2nc(Nc3ccc(N4CCN(S(C)(=O)=O)CC4)cc3OC)ncc2C(F)(F)F)c1` [Compound I-22, N-(3-(2-(2-methoxy-4-(4-(methylsulfonyl)piperazin-1-yl)phenylamino)-5-(trifluoromethyl)pyrimidin-4-yloxy)phenyl)acrylamide], below 1 nM.
